Tested on: 3-deoxy-D-arabinoheptulonic acid-7-phosphate synthetase (DS) of Brevibacterium lactofermentum AJ 11957
Test: DS activity of crude enzyme solution with amino acids added, strain AJ 11957
Conditions: 1 mM each; crude enzyme of AJ 11957; activity with none added = 100%

Which “Residual Activity When Each Amino Acid Was Added” value does the source give for `N[C@@H](Cc1ccc(O)cc1)C(=O)O` [Tyrosine, tyrosine] here?
The value was 108%.

— US4968609A, “Coryneform bacteria carrying recombinant DNA and a process for producing aromatic amino acids using said bacteria” (priority 1984, dated 1990)
